Earlier results in publication PMC6478789, “A chemical toolbox for the study of bromodomains and epigenetic signaling” (Nature Communications, 2019).

The chains behind the UniProt entries cited, without tags or fusion partners. Residues count along the entry.
UniProt O15164, 899-1004 limits assumed: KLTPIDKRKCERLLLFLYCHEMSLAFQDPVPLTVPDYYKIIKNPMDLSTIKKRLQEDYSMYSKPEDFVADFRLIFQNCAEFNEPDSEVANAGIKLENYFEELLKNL

Experiments:
[1] = biological target: BRPF2; settings: read-out: KD (nM), BRPF2; ITC; ref 19 (suppl.); cited from earlier work
[2] = biological target: TRIM24 (Homo sapiens, UniProt O15164); settings: read-out: KD (nM), TRIM24; ITC; ref 19 (suppl.); cited from earlier work

COc1ccc(Oc2cc3c(cc2NS(=O)(=O)c2ccc(OC)c(OC)c2)n(C)c(=O)n3C)cc1
Kd [1]: 1240 nM | Kd [2]: 220 nM
